# scFv variants of Ab-14 (heavy chain) against a SARS-CoV-2 spike peptide

Source: Li et al. 2023 (doi:10.1038/s41467-023-39022-2), MIT Lincoln Laboratory and A-Alpha Bio; data file from the FLAb repository.

Target peptide (SARS-CoV-2 spike, HR2 region): PDVDLGDISGINAS

Parent: Ab-14, a human scFv built as VH, a 15-residue (Gly4Ser)3 linker, VL. Only the CDRs of the heavy chain vary.
VH: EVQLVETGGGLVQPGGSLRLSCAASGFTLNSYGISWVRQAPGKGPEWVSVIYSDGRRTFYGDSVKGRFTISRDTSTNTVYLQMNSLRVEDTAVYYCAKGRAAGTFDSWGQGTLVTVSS
VL: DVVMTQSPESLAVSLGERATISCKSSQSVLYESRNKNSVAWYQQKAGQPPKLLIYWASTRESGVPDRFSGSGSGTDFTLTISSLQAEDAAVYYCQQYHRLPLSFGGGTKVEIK

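Phage display of a naive human antibody library on the peptide gave the parent. These sequences belong to a second round, designed from the earlier measurements on random variants of the parent. Several design methods are mixed in this list. The scFvs were displayed on barcoded MATa yeast, the peptide on MATalpha yeast. The frequency of each diploid, read from paired DNA barcodes, reflects how well the two displayed proteins bind. The ratio of observed to expected reads was calibrated, replicate by replicate, on BCL2-family standards whose Kd was known from biolayer interferometry. The assay was run in six technical replicates.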

Variants are written as CDR1, CDR2 and CDR3 of the heavy chain (limits as in the source). Parent: GFTLNSYGIS, VIYSDGRRTFYGDSVK, GRAAGTFDS. This list holds designs with at most six substitutions. Each Kd is an estimate from the mating assay, the geometric mean of the replicates in which the pair was seen; lower is stronger. A pair that was not seen in any replicate is written "nd"; this usually means weak binding, but a binder can also be missed. Order: sorted from the lowest average up, undetected variants last. The parent sequence was in this pool as ten entries: three were never detected, three once, and four in most replicates, with averages from 2.2 nM to 240 nM. Values of this round are not directly comparable with the first-round values of the same sequences. In the paper, a design with two or fewer of six values counts as a poor binder. Where one sequence has several entries in the source, the replicates are pooled. Background: pairings of all heavy chain designs with three empty control strains gave a value in 1% of cases (median 120 nM, 5th percentile 7.0 nM). Values in that range, when seen in few replicates, are hard to tell from nonspecific mating. The control count says in how many pairings with the empty strains this scFv gave a signal.

For GFNLNSYGIS / VIYSDGRRTFYKDSVK / GKEAGTFDS, the assay gave 340 pM (6 of 6 replicates; controls 0 of 18). The variant GFSLNSYGIS / VIYSDGRRTFYGDSVK / GREAGTFDS gave 470 pM (12 of 12 replicates; controls 0 of 36). The variant GFALNSYGIS / VIYSDGRRTFYGDSVK / GNEAGTFDT showed 630 pM (6 of 6 replicates; controls 0 of 18). For GFTLNSYGIS / VIYADGRRTFYGDSVK / GSAAGTFDS, the assay gave 740 pM (12 of 12 replicates; controls 1 of 36). The variant GFTLNEYGIS / VIYSDGRRTFYTDSVK / GVEAGTFDS showed 870 pM (6 of 6 replicates; controls 0 of 18). For GFDLNSYGIS / VIYSDGRRTFYGDSVK / GKAAGTFDV, the assay gave 1.0 nM (6 of 6 replicates; controls 0 of 18).

The variant GFSLNDYGIS / VIYSDGRRTAYGDSVK / GRAAGTFDS showed 1.3 nM (6 of 6 replicates; controls 1 of 18). The variant GFELNQYGIS / VIYSDGRRTFYSDSVK / GRQAGTFDS gave 1.7 nM (6 of 6 replicates; controls 0 of 18). The variant GFTLNSYGIS / VIYSDGKRTFYGDRVK / GNEAGTFDT showed 2.0 nM (6 of 6 replicates; controls 0 of 18). For GFTLNNYGIS / VIYSDGRRTFYHDSVK / GQLAGTFDS, the assay gave 2.1 nM (6 of 6 replicates; controls 0 of 18). The variant GFQLNSYGIS / VIYSDGRRTFYADSVK / GQEAGTFDS gave 2.5 nM (6 of 6 replicates; controls 1 of 18). For GFSLNDYGIS / VIYSDGRRTFYHDSVK / GRLAGTFDS, the assay gave 2.7 nM (6 of 6 replicates; controls 0 of 18).

With GFELNSYGIS / VIYSDGRRTFYVDSVK / GKTAGTFDT the result was 2.9 nM (1 of 6 replicates; controls 0 of 18). The variant GFTLNSYGIS / VIYSDGRRTMYDDSVK / GQEAGTFDS gave 3.0 nM (6 of 6 replicates; controls 0 of 18). The variant GFNLNSYGIS / VIYSDGRRTFYSDSVK / GRAAGTFDS gave 3.1 nM (12 of 12 replicates; controls 1 of 36). With GFTLNSYGIS / VIYSDGRRTFYGDSVK / DRAAGTFLS the result was 3.3 nM (1 of 6 replicates; controls 1 of 18). The variant GFELNSYGIS / VIYSDGRRTFYADSVK / GEAAGTFDS gave 3.7 nM (6 of 6 replicates; controls 0 of 18). The variant GFTLESYGIS / VIYSDGRRTFYDDSVK / GQEAGTFDS showed 4.0 nM (6 of 6 replicates; controls 0 of 18).

With GFTLNSYGIS / VIYSDGLRTFYADSVK / GRAAGTFDS the result was 4.7 nM (10 of 12 replicates; controls 0 of 36). With GFELNSYGIS / VIYSDGRRTFYIDSVK / GRVAGTFDS the result was 9.3 nM (6 of 6 replicates; controls 0 of 18). The variant GFELNNYGIS / VIYSDGRRTFYHDSVK / GKAAGTFDS showed 18 nM (5 of 6 replicates; controls 0 of 18). The variant GFWLNSYGIS / VIYSDGRKTFYKDSVD / GRAAGTFDS gave 26 nM (4 of 6 replicates; controls 0 of 18). The variant GFTLNEYGIS / VIYSDGRRTFYTDSVK / GRCAGTFDS gave 32 nM (2 of 6 replicates; controls 0 of 18). For GFSLNSYGIS / VIYSDGRRTFYTDSVK / GSAAGTFDS, the assay gave 50 nM (4 of 6 replicates; controls 0 of 18).

For GFELNDYGIS / VIYSDGRRTVYIDSVK / GRAAGTFDS, the assay gave 57 nM (6 of 6 replicates; controls 0 of 18). With GFTLNDYGIS / VIYRDGFRTFYGDSVK / GRHAGTFDS the result was 130 nM (1 of 6 replicates; controls 0 of 18). The variant GFTLNSYGIS / VIYSDGRRTAYGDSVK / GSATGTFDS gave 270 nM (2 of 6 replicates; controls 0 of 18). For GFDLNTGGIS / VIYSDGRRTFYGDSVK / GRAAAWFNS, the assay gave nd (0 of 6 replicates; controls 0 of 18). For GFTLNDYGIS / VIYSDGRRTMYIDSVK / GRAAGTFDA, the assay gave nd (0 of 6 replicates; controls 0 of 18). The variant GFTLNSYGIS / VIYSDGMRTMYGDSVK / GRAAGTFDS showed nd (0 of 6 replicates; controls 0 of 18).

With RFTLNDYGIS / VDYSDGRRTFYGDSVK / GNAAGTFDS the result was nd (0 of 6 replicates; controls 0 of 18). The variant GFTLNSYGIS / VIYSDGRRTFYHDSVK / GRAAGAFDS gave nd (0 of 6 replicates; controls 0 of 18). The variant GFTLESYGIS / VIYADGRRTFYGDPVK / GRAAGTFKS gave nd (0 of 6 replicates; controls 0 of 18). For GFTLNSYGIS / VIYSDGIRTFYGDSVK / GAVIGTFDS, the assay gave nd (0 of 6 replicates; controls 0 of 18). The variant GFTLNSYGIS / VIYSDGRRTFYGDSVK / GRAAGVADS showed nd (0 of 6 replicates; controls 0 of 18). The variant GFTLNSYGIS / VIYSDGRRTFYTDSYK / GKAAGTFDS showed nd (0 of 6 replicates; controls 0 of 18).

For GFTMNSYGIH / VIYSDGLRTFYGDSVK / GREAGTFDS, the assay gave nd (0 of 6 replicates; controls 0 of 18). The variant GRTLNSYGIS / VIYSDGERTFYGDSVK / RRAAGTFNS gave nd (0 of 6 replicates; controls 0 of 18). With GDTLNQYGIS / VIYADGRRTFYGDSVK / GRAAGTNKS the result was nd (0 of 6 replicates; controls 0 of 18). For GFTLNSYGIS / VIYADGRRTFYGDSVK / GRATLTFDD, the assay gave nd (0 of 6 replicates; controls 0 of 18). With GFTLNSYGIS / VIYADGRRTFYGDSVK / GRAAGTFTK the result was nd (0 of 6 replicates; controls 0 of 18). The variant GFTLNDYGIS / VIYSDGRRTFYGDDVK / TRAAGTFDS showed nd (0 of 6 replicates; controls 0 of 18).

With NFDLNSYGIS / VIYSDGRRTFYGDSVK / GRAAGWFNS the result was nd (0 of 6 replicates; controls 0 of 18).

2 of these entries, quoted again:

RFTLNDYGIS / VDYSDGRRTFYGDSVK / GNAAGTFDS: nd (0 of 6 replicates; controls 0 of 18).
GFTLNSYGIS / VIYSDGRRTFYHDSVK / GRAAGAFDS: nd (0 of 6 replicates; controls 0 of 18).